# Test system: isolated hamster ureter
# Assay: Inhibition of phenylephrine-induced contraction of isolated hamster ureter (organ bath)
# Settings: against phenylephrine concentration-response curve
structure (smiles),measurement,value
CN(CCCl)Cc1cc(Cl)c(NC2=NCCN2)c(Cl)c1,pA2,<5
